In patent publication US12329851B2, “Long acting injectable formulation comprising risperidone and biodegradable polymers” (MedinCell S.A., priority 2021, dated 2025):

Assay: Population pharmacokinetics (PopPK) modeling
Design: species or system human
Conditions: after sc Risperidone formulation

Cc1nc2n(c(=O)c1CCN1CCC(c3noc4cc(F)ccc34)CC1)CCCC2 [risperidone]
final PopPK model estimate for clearance (CL): 14.3 L/h
